From publication PMC12022901 (Frontiers in Pharmacology, 2025)
Entries after “also recorded” stand apart in the source; their conditions may differ.

Experiments:
clinical = settings: for CL/F / t1/2 / Vd/F / Tmax / AUC(0-inf) / Cmax: GM; for Vd/F / Tmax / AUC(0-inf) / Cmax: human, in vivo; for Vd/F: Vz/F
[1] = Pharmacokinetics of factor Xa inhibitors at baseline and at gabapentin steady-state (open-label fixed-sequence DDI trial); settings: for AUC(0-inf) / Cmax: human, in vivo, po, GM
Excerpt: (§1) A p-value < 0.05 was considered significant.

[2] = Pharmacokinetics of factor Xa inhibitors at baseline and at pregabalin steady-state (open-label fixed-sequence DDI trial); settings: for AUC(0-inf) / Cmax: human, in vivo, po, GM
Excerpt: as §1

[3] = 60 mg, 60 mg edoxaban, at carbamazepine steady-state
[4] = po, oral microdose cocktail, during carbamazepine steady-state
[5] = po, oral microdose cocktail, baseline
[6] = po, oral microdose cocktail, at carbamazepine steady-state
[7] = oral microdose cocktail, baseline
[8] = 60 mg, single oral 60 mg edoxaban, during gabapentin steady-state
[9] = oral microdose cocktail, during gabapentin steady-state
[10] = 60 mg, single oral 60 mg edoxaban, during pregabalin steady-state
[11] = oral microdose cocktail, before pregabalin
[12] = oral microdose cocktail, during pregabalin steady-state

CN1CCc2nc(C(=O)N[C@@H]3C[C@@H](C(=O)N(C)C)CC[C@@H]3NC(=O)C(=O)Nc3ccc(Cl)cn3)sc2C1 [Edoxaban, edoxaban]
CL/F (clinical; 60 mg edoxaban, at carbamazepine steady-state): 87 L/h
CL/F (clinical; 60 mg edoxaban, baseline): 42 L/h
t1/2 (clinical; 60 mg edoxaban, baseline): 7.2 h
range of exposure changes caused by carbamazepine between individuals (clinical; edoxaban): 3.1 fold
minimum exposure during carbamazepine, of baseline exposure (clinical; edoxaban, individual minimum): 26%
Vd/F (clinical; [3]): 918 L
Vd/F (clinical; 60 mg, 60 mg edoxaban, baseline): 432 L
Tmax (clinical; 60 mg, 60 mg edoxaban tablet, baseline): 1.12 h
Tmax (clinical; [3]): 1.07 h
AUC(0-inf) (clinical; po, 60 mg, single oral 60 mg edoxaban, baseline, N=12): 1440 ng·h/mL
AUC(0-inf) (clinical; po, 60 mg, single oral 60 mg edoxaban, during carbamazepine steady-state, N=12): 687 ng·h/mL
Cmax (clinical; po, 60 mg, single oral 60 mg edoxaban, during carbamazepine steady-state): 127 ng/mL
AUC(0-inf) (clinical; po, oral microdose cocktail (25 µg apixaban, 50 µg edoxaban, 25 µg rivaroxaban), baseline): 0.883 ng·h/mL
AUC(0-inf) (clinical; [4]): 0.517 ng·h/mL
Cmax (clinical; [5]): 0.119 ng/mL
Cmax (clinical; [4]): 0.083 ng/mL
Vd/F (clinical; [6]): 562 L
Vd/F (clinical; [5]): 403 L
Tmax (clinical; [6]): 1.48 h
CL/F (clinical; oral microdose cocktail, at carbamazepine steady-state): 96 L/h
CL/F (clinical; [7]): 56 L/h
t1/2 (clinical; [7]): 4.97 h
effect on exposure ([1]; 60 mg edoxaban, gabapentin steady-state): did neither affect the exposure; also recorded: did not alter the exposure; also recorded: did not change the exposure
AUC(0-inf) ([1]; 60 mg, single oral 60 mg edoxaban, baseline, N=11): 1250 ng·h/mL
AUC(0-inf) [1, 8]: 1220 ng·h/mL
Cmax ([1]; 60 mg, single oral 60 mg edoxaban, baseline): 227 ng/mL
Cmax [1, 8]: 182 ng/mL
AUC(0-inf) [1, 7]: 0.833 ng·h/mL
AUC(0-inf) [1, 9]: 0.933 ng·h/mL
Cmax [1, 7]: 0.112 ng/mL
Cmax [1, 9]: 0.118 ng/mL
effect on exposure ([2]; 60 mg edoxaban, pregabalin steady-state): did neither affect the exposure; also recorded: did not alter the exposure; also recorded: did not change the exposure
AUC(0-inf) ([2]; 60 mg, single oral 60 mg edoxaban, before pregabalin, N=12): 1120 ng·h/mL
AUC(0-inf) [2, 10]: 1050 ng·h/mL
Cmax ([2]; 60 mg, single oral 60 mg edoxaban, before pregabalin): 170 ng/mL
Cmax [2, 10]: 161 ng/mL
AUC(0-inf) [2, 11]: 1.18 ng·h/mL
AUC(0-inf) [2, 12]: 1.12 ng·h/mL
Cmax [2, 11]: 0.148 ng/mL
Cmax [2, 12]: 0.15 ng/mL
